Data taken from patent US20220024983A1, “BICYCLIC PEPTIDE LIGANDS SPECIFIC FOR IL-17” (BicycleRD Limited, priority 2018, published 2022).
Like-named read-outs stand apart in the source and are kept apart here. Blank lines part the entries; values can stand above or below the molecule they belong to.

Assays:
hIL17-F / IL17F dimer = molecular target: T1, hIL17-F / IL17F dimer (Homo sapiens, UniProt Q96PD4); experiment: IL-17F human binding assay; settings: Table 2, Human IL17F dimer; read-out: Kd
T1 sequence (Q96PD4 31-163): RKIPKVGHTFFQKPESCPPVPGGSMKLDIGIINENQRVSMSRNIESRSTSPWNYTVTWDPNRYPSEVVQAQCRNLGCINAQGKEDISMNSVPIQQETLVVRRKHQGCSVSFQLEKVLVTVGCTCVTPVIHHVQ
Experimental: (§1) IL-17A, IL-17E and IL-17F binding was determined using an analogous method to that described in WO 2011/141823.
(§2) Selected peptide ligands of the invention were tested in the above mentioned IL-17A, IL-17E and IL-17F human and mouse binding assays and the results are shown in Tables 1 and 2: […]

hIL17-A / IL17A dimer = molecular target: T2, hIL17-A / IL17A dimer (Homo sapiens, UniProt Q16552); experiment: IL-17A human binding assay
T2 sequence (Q16552 24-155): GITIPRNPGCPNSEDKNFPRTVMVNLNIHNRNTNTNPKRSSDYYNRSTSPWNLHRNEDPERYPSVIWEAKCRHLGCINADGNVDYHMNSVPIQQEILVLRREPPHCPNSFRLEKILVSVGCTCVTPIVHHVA
Experimental: as §1, §2

IL17A/F dimer = molecular target: T3, IL17A/F dimer (Homo sapiens, UniProt Q16552+Q96PD4); experiment: IL-17A/F human binding assay; settings: Table 2, Human IL17A/F dimer
T3 sequence (Q16552 24-155): T2 sequence (Q16552 24-155)
T3 sequence (Q96PD4 31-163): T1 sequence (Q96PD4 31-163)
Experimental: as §1, §2

IL17A dimer = molecular target: T4, IL17A dimer (Mus musculus, UniProt Q62386); experiment: IL-17A mouse binding assay; settings: Table 2, Mouse IL17A dimer
T4 sequence (Q62386 26-158): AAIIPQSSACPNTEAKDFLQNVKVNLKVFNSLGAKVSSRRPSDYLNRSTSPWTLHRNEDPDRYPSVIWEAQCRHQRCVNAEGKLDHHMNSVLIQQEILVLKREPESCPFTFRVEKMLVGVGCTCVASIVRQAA
Experimental: as §1, §2

hIL17-E = molecular target: T5, hIL17-E (Homo sapiens, UniProt Q9H293); experiment: IL-17E human binding assay; settings: Table 1, human
T5 sequence (Q9H293 33-177): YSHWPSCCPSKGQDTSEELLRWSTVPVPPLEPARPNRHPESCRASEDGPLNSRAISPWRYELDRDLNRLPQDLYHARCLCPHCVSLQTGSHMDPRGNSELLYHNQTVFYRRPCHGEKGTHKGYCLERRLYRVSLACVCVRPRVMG
Experimental: as §1, §2

human IL-17A dimer [1] = molecular target: T6, human IL-17A dimer (human, UniProt Q16552 24-155); experiment: FP competition, competitor: tracer BCY2311; Ki Mean column, n=4
T6 construct: also called hIL17-A
T6 sequence (looked up): T2 sequence (Q16552 24-155)
Experimental: (§3) Affinity determination by fluorescence polarization (FP) competition. Bicycles were screened to determine affinity (Ki) in a fluorescence polarisation assay where in competition with a bicycle labelled with fluorescein (referred to as tracer) with a known affinity for IL-17A. Peptides were diluted to an appropriate concentration in assay buffer (PBS+0.01% Tween20, adjusted to pH7.4 using NaOH (1M)) with a maximum of 1% DMSO, then serially diluted 1 in 2 into assay buffer. Into black 384-well low volume plates, 5 µL of diluted peptide was added to the plate followed by 10 μL of IL-17A (75 nM) then 10 μL tracer added to a final concentration of 1 nM. Measurements were conducted on a BMG PHERAstar FS equipped with an “FP 485 520 520” optic module which excites at 485 nm and detects parallel and perpendicular emission at 520 nm. The PHERAstar FS was set at 25° C. with 200 flashes per well and a positioning delay of 0.1 second, with each well measured at 5 to 10 minute intervals for 60 minutes. The gain used for measurements was determined at the point of experiment on a tracer alone well. Data analysis was performed in Dotmatics where mP values were fit to the Cheng Prusoff equation in order to generate a Ki value.
(§4) Selected peptide ligands of the invention were tested in the above mentioned human FP competition assay and the results are shown in Table 3: […]

human IL-17A dimer [2] = molecular target: T6, human IL-17A dimer; experiment: FP competition, competitor: tracer BCY2311
Experimental: as §3, §4

human IL-17A dimer [3] = molecular target: T6, human IL-17A dimer; experiment: FP competition, competitor: tracer BCY2311; Ki Mean column, n=3
Experimental: as §3

human IL-17A dimer [4] = molecular target: T6, human IL-17A dimer; experiment: binding assay, method analogous to WO 2011/141823
human IL-17F dimer [5] = molecular target: T7, human IL-17F dimer (human, UniProt Q96PD4 31-163); experiment: binding assay, method analogous to WO 2011/141823; column head prints hIL17-E, read as IL-17F by paragraph 34 and paragraph 38
T7 construct: also called hIL17-F
T7 sequence (looked up): T1 sequence (Q96PD4 31-163)

human IL-17A dimer [6] = molecular target: T6, human IL-17A dimer; experiment: FP competition, competitor: tracer BCY2311; Ki Mean column, n=5
Experimental: as §3, §4

human IL-17A dimer [7] = molecular target: T6, human IL-17A dimer; experiment: FP competition, competitor: tracer BCY2315
Experimental: as §3, §4

human IL-17A dimer [8] = molecular target: T6, human IL-17A dimer; experiment: FP competition, competitor: tracer BCY2315; Ki Mean column, n=2
Experimental: as §3

human IL-17F dimer [9] = molecular target: T7, human IL-17F dimer; experiment: binding assay, method analogous to WO 2011/141823; column head prints hIL17-E, read as IL-17F by paragraph 38
human IL-17A dimer [10] = molecular target: T6, human IL-17A dimer; experiment: FP competition, competitor: tracer BCY2311; Ki Mean column, n=2
Experimental: as §3, §4

human IL-17A dimer [11] = molecular target: T6, human IL-17A dimer; experiment: FP competition, competitor: tracer BCY2315; Ki Mean column, n=3
Experimental: as §3, §4

human IL-17E = molecular target: T8, human IL-17E (human, UniProt Q9H293 33-177); experiment: binding assay, method analogous to WO 2011/141823; column head prints hIL17-F, read as IL-17E by paragraph 29 and paragraph 30
T8 construct: also called hIL17-E; IL-25
T8 sequence (looked up): T5 sequence (Q9H293 33-177)

[12] = Table 2, Human IL17A dimer, read-out: Kd

Molecule: A-(SEQ ID NO: 58)-A-[Sar6]-K-[Fl] [BCY2222]
Kd (hIL17-F / IL17F dimer): 0.229 µM
Kd (hIL17-A / IL17A dimer; [12]): 0.702 µM

Molecule: [Fl]G-[Sar5]-A-(SEQ ID NO: 1)-A [BCY2311]
Kd (IL17A/F dimer): > 1 µM
Kd (hIL17-F / IL17F dimer): > 1 µM
Kd (hIL17-A / IL17A dimer; Table 2, Human IL17A dimer, column Mean, read-out: Kd Mean): 0.0247 µM
Kd (hIL17-A / IL17A dimer; [12]): 0.0259 ± 0.00619 µM
Kd (IL17A dimer): > 0.65 µM

Molecule: A-(SEQ ID NO: 59)-A-[Sar6]-K-[Fl] [BCY2217]
Kd (hIL17-F / IL17F dimer): 0.401 µM

Molecule: A-(SEQ ID NO: 58)-A [BCY2203]
Kd (hIL17-E): 0.24 µM
Kd (hIL17-A / IL17A dimer; Table 1, human, read-out: hIL17-A Binding Kd): 0.702 µM

Molecule: A-(SEQ ID NO: 54)-A-[Sar6]-K-[Fl] [BCY2317]
Kd (hIL17-A / IL17A dimer; [12]): 0.181 µM
Kd (IL17A dimer): > 0.65 µM

Molecule: ACDHSDFICWLNNFNCA (Ci, Cii and Ciii cyclised with TBMB, Bicyclic peptide) [BCY2203]
Kd (human IL-17A dimer [4]): 0.702 µM
Kd (human IL-17F dimer [5]): 0.24 µM

Molecule: ACDTDPELCRFLNLDCA (Ci, Cii and Ciii cyclised with TBMB, Bicyclic peptide) [BCY2273]
Ki (human IL-17A dimer [2]): 0.0852 µM
Ki (human IL-17A dimer [6]): 0.0843 µM
Ki (human IL-17A dimer [7]): 0.0342 µM

Molecule: ACDTDPELCRFLGLDCA (Ci, Cii and Ciii cyclised with TBMB, Bicyclic peptide) [BCY2286]
Ki (human IL-17A dimer [2]): 0.025 µM
Ki (human IL-17A dimer [8]): 0.0153 µM
Ki (human IL-17A dimer [7]): 0.0157 µM
Ki (human IL-17A dimer [3]): 0.0233 µM

Molecule: ACEDKELCEFFGLCA (Ci, Cii and Ciii cyclised with TBMB, Bicyclic peptide) [BCY2260]
Ki (human IL-17A dimer [1]): 0.268 µM
Ki (human IL-17A dimer [2]): 0.277 µM

Molecule: CYEAELCEFLGLC (Ci, Cii and Ciii cyclised with TBMB; N-terminal acetyl (Ac), Bicyclic peptide) [BCY2239]
Ki (human IL-17A dimer [2]): 0.0332 µM
Ki (human IL-17A dimer [6]): 0.0323 µM

Molecule: CYEDELCEWLGLC (Ci, Cii and Ciii cyclised with TBMB; N-terminal acetyl (Ac), Bicyclic peptide) [BCY2246]
Ki (human IL-17A dimer [8]): 0.545 µM
Ki (human IL-17A dimer [7]): 0.549 µM

Molecule: ACPQDLELCTFLFGDCA (Ci, Cii and Ciii cyclised with TBMB, Bicyclic peptide) [BCY2272]
Ki (human IL-17A dimer [2]): 0.281 µM
Ki (human IL-17A dimer [6]): 0.255 µM

Molecule: ACPNELYCFVTGNCA (Ci, Cii and Ciii cyclised with TBMB, Bicyclic peptide) [BCY2293]
Ki (human IL-17A dimer [2]): 0.281 µM
Ki (human IL-17A dimer [3]): 0.277 µM

The remaining lines, values ahead:

Ki (human IL-17A dimer [1]): 0.13 µM
Ki (human IL-17A dimer [2]): 0.134 µM
Molecule: ACYEDELCEFLGLCA (Ci, Cii and Ciii cyclised with TBMB, Bicyclic peptide) [BCY2235]

Ki (human IL-17A dimer [2]): 0.41 µM
Ki (human IL-17A dimer [3]): 0.399 µM
Molecule: ACSDLELCEFLGLCA (Ci, Cii and Ciii cyclised with TBMB, Bicyclic peptide) [BCY2258]

Kd (human IL-17F dimer [9]): 0.373 µM
Molecule: ACGQCSFSYWLNCA (Ci, Cii and Ciii cyclised with TBMB, Bicyclic peptide) [BCY2202]

Kd (human IL-17A dimer [4]): 0.336 µM
Ki (human IL-17A dimer [2]): 0.823 µM
Ki (human IL-17A dimer [10]): 0.741 µM
Molecule: ACDQDELMCFLTGHQCA (Ci, Cii and Ciii cyclised with TBMB, Bicyclic peptide) [BCY2265]

Ki (human IL-17A dimer [8]): 1.69 µM
Ki (human IL-17A dimer [7]): 1.75 µM
Molecule: CYEDELCEWLNLC (Ci, Cii and Ciii cyclised with TBMB; N-terminal acetyl (Ac), Bicyclic peptide) [BCY2252]

Ki (human IL-17A dimer [2]): 0.0304 µM
Ki (human IL-17A dimer [7]): 0.0405 µM
Ki (human IL-17A dimer [11]): 0.0398 µM
Molecule: CYEDELCAFLGLC (Ci, Cii and Ciii cyclised with TBMB; N-terminal acetyl (Ac), Bicyclic peptide) [BCY2243]

Kd (human IL-17E): 0.392 µM
Molecule: ACLWKDNCTHWSLCA (Ci, Cii and Ciii cyclised with TBMB, Bicyclic peptide) [BCY2441]

Ki (human IL-17A dimer [2]): 0.601 µM
Ki (human IL-17A dimer [3]): 0.598 µM
Molecule: ACDDYQLCEFLGLCA (Ci, Cii and Ciii cyclised with TBMB, Bicyclic peptide) [BCY2259]
